Results as given in patent US20090042809A1, “Blood Pressure Lowering Protein Hydrolysates” (priority 2005, published 2009).

Tests used:
ACE [1] = test: at-line ACE inhibition assay (HHL substrate, HPLC read-out); format: biochemical; details: at-line measurements used in the screening phase
Source text: The presence of novel ACE inhibiting peptides in CDBAP was investigated by using 2-dimensional-chromatographic-separation combined with an at-line ACE inhibition assay and mass spectrometry for identification. In the first analysis the peptide mixture was separated on an ODS3 liquid chromatography (LC) column and ACE inhibition profiles were generated from the various fractions obtained. In a second analysis the fractions from the first column showing a high ACE inhibition were further separated on a Biosuite LC column using a different gradient profile. The fractions collected from this second column were split into two parts: one part was used for the at-line ACE inhibition measurement while the other part was subjected to MS and MS-MS analysis to identify the peptides present. […]
The 96 well plate was then analysed on a flash-HPLC-column. […] Hippuric acid (H) and HHL were monitored at 280 nm. The peak heights of H and HHL were measured and the ACE inhibition (ACEI) of each fraction was calculated according to the equation:
[formula] • ACEIα Percentage inhibition of the analyte • Dcw Degree of Cleavage by ACE of HHL to H and HL in water • Dca Degree of Cleavage of HHL to H and HL for the analyte The Degree of Cleavage was calculated by expressing the peak height of H as a fraction of the sum of the peak heights of H and HHL.

ACE [2] = test: modified Matsui ACE inhibition assay (Hip-His-Leu, TNBS); format: biochemical
Method: To determine the ACE inhibition activity of MAP and ITP, the chemically synthesised tripeptides were assayed according to the method of Matsui et al. (Matsui, T. et al. (1992) Biosci. Biotech. Biochem. 56: 517-518) with some minor modifications.
Each one of the four samples contained 75 μl 3 mM hippuryl histidine leucine (Hip-His-Leu, Sigma Chemicals) dissolved in a 250 mM borate solution containing 200 mM NaCl, pH 8.3. ACE was obtained from Sigma Chemicals. The mixtures were incubated at 37° C. and stopped after 30 min by adding 125 μl 0.5 M HCl. […] After incubation for 20 min. at 37° C., 4 ml 4 mM Na2SO3 in 0.2 M NaH2PO4 was added and the light absorbance at 416 nm was measured with UV/Vis spectrophotometer (Shimadzu UV-1601 with a CPS controller, Netherlands).
The amount of ACE inhibition (ACEI) activity was calculated as a percentage of inhibition compared with the conversion rate of ACE in the absence of an inhibitor according to the following formula: […]
wherein • Control 1=Absorbance without ACE inhibitory component (=max. ACE activity) [AU]. • Control 2=Absorbance without ACE inhibitory component and without ACE (background) [AU]. • Sample 1=Absorbance in the presence of ACE and the ACE inhibitory component [AU]. • Sample 2=Absorbance in the presence of the ACE inhibitory component, but without ACE [AU].

[3] = gastrointestinal treatment (GIT) simulating digestion with pepsin and pancreatin; format: in vitro ADME, human
Method: After consumption, dietary proteins and peptides are exposed to various digestive enzymatic processes in the gastrointestinal tract. In order to assess the stability of the newly identified bioactive peptides in the human gastrointestinal tract, the CDBAP preparation (prepared as described in Example 7) was subjected to a gastrointestinal treatment (GIT) simulating the digestive conditions typically found in the human body. Samples obtained after various incubation times in the GIT model system were analysed using the on-line HPLC-Bioassay-MS or HRS-MS system to quantify any residual MAP and ITP peptides. The GIT procedure was performed in a standardized mixing device incorporating a 100 ml flask (as supplied by Vankel, US). The temperature of the water bath was set to 37.5° C. and the paddle speed was chosen such that the sample was kept in suspension (100 rpm).
About 3.4 grams of CDBAP (protein level of approx 60%) was dissolved/suspended in 100 ml Milli-Q water. During gastric simulation 5 M HCl was used to decrease the pH. At the end of gastric simulation and during the duodenal phase 5 M NaOH was used to raise the pH.
The CDBAP suspension was preheated to 37.5° C. and 5 ml of the suspension was removed to dissolve 0.31 g of pepsin (Fluka order no. 77161). At t=0 min the 5 ml with the now dissolved pepsin was added back to the suspension. Then the pH of the CDBAP suspension was adjusted slowly by hand using a separate pH meter according to the following scheme:
t=20 min pH decreased to 3.5 t=40 min pH to 3.0 t=50 min pH to 2.3 t=60 min pH to 1.8 t=65 min pH raised to 2.7 t=75 min pH to 3.7 t=80 min pH to 5.3 […]
Then the samples were transferred into a beaker and were placed in a microwave till boiling. […] The total N concentration of the powder as obtained was determined and converted to protein level using the Kjeldahl factor of casein (6.38). […] The levels of MAP and ITP surviving the proteolytic treatment according to the GIT procedure were determined as described in Example 7 and the data obtained are shown in Table 10.

CSCC[C@H](N)C(=O)N[C@@H](C)C(=O)N1CCC[C@H]1C(=O)O [MAP, Met-Ala-Pro]
IC50 (ACE [1]): 3800 nM
IC50 (ACE [2]; as restated in the description, read-out: IC50 value in the Modified Matsui test): 500 nM
IC50 (ACE [2]; chemically synthesized tripeptides, read-out: IC50 value, Modified Matsui assay): 400 nM
Concentration of tripeptide in CDBAP before GIT procedure ([3]; CDBAP (Example 7), before passage): 2851.4 μg g^−1 powder
Concentration of tripeptide in CDBAP after GIT procedure ([3]; CDBAP after GIT, pepsin then pancreatin, 125 min, 37.5° C.): 3095.8 μg g^−1 powder
resistance against GIT digestion ([3]; simulated gastro-intestinal digestion): high resistance; also recorded: resist gastrointestinal proteolytic degradation; also recorded: survive

Entries after “also recorded” stand apart in the source; their conditions may differ.
